# According to article PMC7723054:
# Some of the results follow.
# B1: hsa-mir-7-3 (structured_RNA)
# RNA: GGGAAAUGUAGCUCCCCUUUAGCGGAUUGGUGUACGAAGUUUCAGCUUGUUCUGAUGUACUACGACAAGCUGAAGCUUCGUGCAC
# B2: hsa-mir-3183 (structured_RNA)
# RNA: GGGAACGAGUGCCCCUAUUUGCCUGAAUGGUGUACGAAGUUUCAGCCGGAGCAGUCACGUUGACGGAAUCCUCCGGCUGAAGCUUCGUGCAC
# B3: hsa-mir-663b (structured_RNA)
# RNA: GGGAAGUACAUGCAAGGAUUUAAGCCGUGGUGUACGAAGUUUCAGCUCCUAGGCGGGUCGCUGCGGUACCUCCCUCCUGUCUGUGGCGGUGGGAUCCCGUGGCCGUGUUUUCCUGGUGGCUGAAGCUUCGUGCAC
# B4: hsa-mir-610 (structured_RNA)
# RNA: GGGACAGUGGUAAUCUUGCCACCACGACGGUGUACGAAGUUUCAGCGGGACACAUUUGAGCCAAAUGUCCCGCUGAAGCUUCGUGCAC
# B5: hsa-mir-6083 (structured_RNA)
# RNA: GGGACUAGCGUUCGUAUAGCAAUCCUGAGGUGUACGAAGUUUCAGCAGGUGGAAAGGGAGCAGGAGCAUCGUCUUUAAGAGGGUCAGGUACCUUUGCUCUUAGCUGAAGCUUCGUGCAC
# B6: hsa-mir-33b (structured_RNA)
# RNA: GGGAAUAACACACCGCUCGGUGACCAGGGGUGUACGAAGUUUCAGCAUUGCACGUGUGUGAGGCGGGUGCAGUGCUGAAGCUUCGUGCAC
# B7: hsa-mir-5683 (structured_RNA)
# RNA: GGGACAGGGUCAUUAUCGCCCAUGAAUUGGUGUACGAAGUUUCAGCCUUCUUACUGCACCAGUGAAGGCUGAAGCUUCGUGCAC
# B8: hsa-mir-3605 (structured_RNA)
# RNA: GGGACGGGAAACCCAAAUCUUCAUUAGGGGUGUACGAAGUUUCAGCGAAGCCGCUCCCACCUGACCCUCACGGCCUCGCUGAAGCUUCGUGCAC
# B9: hsa-mir-4278 (structured_RNA)
# RNA: GGGAAAGUCAUAGACCGGAGUCUUCCUAGGUGUACGAAGUUUCAGCAUAGAACAUUGACAUCAACACUAGGCUGAAGCUUCGUGCAC
# B10: hsa-mir-8073 (structured_RNA)
# RNA: GGGAAUGCAAGGGGCACUCAAAAGCACAGGUGUACGAAGUUUCAGCUCGUCAGUGUUUGAGCUGAAGCUUCGUGCAC
# B11: hsa-mir-642a (structured_RNA)
# RNA: GGGAAUCAAAGGCACGGUGUAUCUAGCAGGUGUACGAAGUUUCAGCGUCUUGGGGUGGGGGAUCAAGACGCUGAAGCUUCGUGCAC
# How the values were obtained:
# Assay in all cases: FOREST: bead pull-down of RNA structure library v1, barcode microarray; U1A/LIN28A: 20 mM HEPES pH 7.5, 80 mM KCl, 20 mM NaCl, 10% glycerol, 2 mM DTT, 0.1 ug/uL BSA, 4 C; BG4/CIRBP/DHX36: 10 mM Tris-HCl pH 7.5, 100 mM KCl (or LiCl),; high values mean tight binding
# U1A = U1A (Homo sapiens, UniProt P09012)
# LIN28A = target: T1, LIN28A (human?, UniProt Q9H9Z2 1-209)
# T1 sequence: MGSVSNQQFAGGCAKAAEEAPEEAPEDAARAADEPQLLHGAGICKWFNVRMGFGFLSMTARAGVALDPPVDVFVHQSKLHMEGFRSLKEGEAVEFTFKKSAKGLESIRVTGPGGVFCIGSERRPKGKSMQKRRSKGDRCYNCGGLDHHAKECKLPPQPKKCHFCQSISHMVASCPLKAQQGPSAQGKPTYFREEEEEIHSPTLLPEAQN
# CIRBP = target: T2, CIRBP (Homo sapiens, UniProt Q14011 1-172)
# T2 sequence: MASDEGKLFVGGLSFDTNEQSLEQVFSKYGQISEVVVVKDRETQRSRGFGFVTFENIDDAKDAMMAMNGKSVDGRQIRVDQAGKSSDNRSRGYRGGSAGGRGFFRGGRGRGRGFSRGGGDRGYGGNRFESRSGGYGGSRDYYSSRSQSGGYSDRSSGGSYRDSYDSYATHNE
# DHX36 = target: T3, DHX36 (Homo sapiens, UniProt Q9H2U1 1-1008)
# T3 sequence: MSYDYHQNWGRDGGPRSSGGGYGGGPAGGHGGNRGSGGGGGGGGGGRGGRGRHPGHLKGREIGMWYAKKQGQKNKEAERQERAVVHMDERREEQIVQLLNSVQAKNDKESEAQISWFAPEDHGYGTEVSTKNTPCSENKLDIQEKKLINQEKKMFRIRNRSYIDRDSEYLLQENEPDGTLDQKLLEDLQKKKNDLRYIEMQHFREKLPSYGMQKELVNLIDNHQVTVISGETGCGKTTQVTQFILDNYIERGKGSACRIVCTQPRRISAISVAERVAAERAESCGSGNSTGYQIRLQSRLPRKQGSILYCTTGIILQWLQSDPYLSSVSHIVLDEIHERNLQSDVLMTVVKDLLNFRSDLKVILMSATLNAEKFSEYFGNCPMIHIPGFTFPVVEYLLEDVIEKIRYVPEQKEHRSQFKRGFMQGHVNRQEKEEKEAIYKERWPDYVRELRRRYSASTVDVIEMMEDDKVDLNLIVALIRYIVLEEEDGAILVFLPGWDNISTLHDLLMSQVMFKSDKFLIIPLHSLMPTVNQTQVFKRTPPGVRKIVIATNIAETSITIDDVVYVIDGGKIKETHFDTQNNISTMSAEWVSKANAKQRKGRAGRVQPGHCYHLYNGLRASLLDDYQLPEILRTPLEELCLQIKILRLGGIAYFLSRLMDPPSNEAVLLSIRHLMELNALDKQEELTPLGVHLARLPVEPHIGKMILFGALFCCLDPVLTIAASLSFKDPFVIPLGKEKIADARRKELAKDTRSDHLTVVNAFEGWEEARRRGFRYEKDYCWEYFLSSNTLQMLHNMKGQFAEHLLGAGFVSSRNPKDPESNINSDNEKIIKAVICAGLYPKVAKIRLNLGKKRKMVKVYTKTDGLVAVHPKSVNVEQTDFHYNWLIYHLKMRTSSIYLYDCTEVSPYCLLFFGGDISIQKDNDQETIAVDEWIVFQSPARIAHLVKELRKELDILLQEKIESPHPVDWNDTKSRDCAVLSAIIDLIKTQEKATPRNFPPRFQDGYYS
Binder,binding signal (U1A) [z-score],binding signal (LIN28A) [z-score],binding signal (CIRBP) [z-score],binding signal (DHX36) [z-score]
B1,0.861,0.953,0.911,-0.176
B2,0.859,-1.35,0.145,-0.314
B3,0.856,0.214,-0.766,0.0778
B4,0.856,-0.998,-1.05,-0.42
B5,0.855,1.14,0.122,1.28
B6,2.35,-0.737,-0.939,-0.589
B7,0.854,-1.9,-1.96,-0.466
B8,0.853,-1.62,-1.14,-0.254
B9,0.852,0.43,-1.36,-1.11
B10,0.846,0.317,0.0495,0.816
B11,0.843,1.81,1.56,2.98
